Measurements reported in patent US9930887B2, “Compound for increasing amino acid content in plant, and use thereof” (Okayama Prefecture, priority 2011, dated 2018).
Where two headings read alike, the source gives them in different places. This is a selection: effects in other tests are not listed, and their absence says nothing.

Assays:
Arabidopsis [1] = conditions: 1 mM GSSG, 2 mM GSH, 3 mM NH4NO3
Arabidopsis [2] = conditions: for total free amino acid content relative to control condition (only water): 1 mM GSSG, 2 mM GSH or 3 mM NH4NO3, 25 mL per pot to roots once a week

Substance: ammonium nitrate
- asparagine content in a leaf (Arabidopsis [1]; effect larger in leaf before photoirradiation (L0)): not observed
- serine content in a leaf (Arabidopsis [1]; treatment combined with photoirradiation for 8 hours (L8, 100 μE/m^2/s)): not observed
- contents of individual free amino acids, ratio to control (Cont.) = 1 (FIG. 2) (Arabidopsis [2]; 4 weeks from seeding, some amino acids (proline, tyrosine, asparagine, glutamine, glutamic acid, methionine, histidine, arginine, GABA, hydroxyproline, homoserine)): scarcely increased
- contents of individual free amino acids, ratio to control (Cont.) = 1 (FIG. 3) (Arabidopsis [2]; 5 weeks from seeding, some amino acids (alanine, serine, proline, valine, tyrosine, isoleucine, leucine, asparagine, lysine, glutamine, histidine, arginine, GABA, hydroxyproline, homoserine)): scarcely increased
- total free amino acid content relative to control condition (only water) (Arabidopsis [2]; plants after 4 weeks from seeding): not increased
- total free amino acid content relative to control condition (only water) (Arabidopsis [2]; plants after 5 weeks from seeding): about 1.37 times
